# Laboratory results: ChEMBL document CHEMBL4613325, “Design of Development Candidate eFT226, a First in Class Inhibitor of Eukaryotic Initiation Factor 4A RNA Helicase” (J Med Chem, 2020)
# Experiment: Efflux ratio in human Caco2 cells at 10 uM by LC/MS/MS analysis
# Details: Caco-2
smiles,measurement,value
COc1cc2c(c(OC)n1)[C@]1(O)[C@H](O)[C@H](CN(C)C)[C@@H](c3ccccc3)[C@]1(c1ccc(C#N)cc1)O2 [ZOTATIFIN],efflux ratio at 10 µM,4
